From PubChem BioAssay (EPA / NIEHS)
The list shows a part of the results, in another mix than the full data. Records with an inconclusive call do not appear. Calls of active or inactive are those of the source. Rule for the calls, unless noted: active = hit-call score of the fitted dose curve at least 0.9, where 1 is the maximum; inactive = score below 0.9.

Amino acid sequences for entries named in this document (tags omitted).
UniProt Q16665, whole entry: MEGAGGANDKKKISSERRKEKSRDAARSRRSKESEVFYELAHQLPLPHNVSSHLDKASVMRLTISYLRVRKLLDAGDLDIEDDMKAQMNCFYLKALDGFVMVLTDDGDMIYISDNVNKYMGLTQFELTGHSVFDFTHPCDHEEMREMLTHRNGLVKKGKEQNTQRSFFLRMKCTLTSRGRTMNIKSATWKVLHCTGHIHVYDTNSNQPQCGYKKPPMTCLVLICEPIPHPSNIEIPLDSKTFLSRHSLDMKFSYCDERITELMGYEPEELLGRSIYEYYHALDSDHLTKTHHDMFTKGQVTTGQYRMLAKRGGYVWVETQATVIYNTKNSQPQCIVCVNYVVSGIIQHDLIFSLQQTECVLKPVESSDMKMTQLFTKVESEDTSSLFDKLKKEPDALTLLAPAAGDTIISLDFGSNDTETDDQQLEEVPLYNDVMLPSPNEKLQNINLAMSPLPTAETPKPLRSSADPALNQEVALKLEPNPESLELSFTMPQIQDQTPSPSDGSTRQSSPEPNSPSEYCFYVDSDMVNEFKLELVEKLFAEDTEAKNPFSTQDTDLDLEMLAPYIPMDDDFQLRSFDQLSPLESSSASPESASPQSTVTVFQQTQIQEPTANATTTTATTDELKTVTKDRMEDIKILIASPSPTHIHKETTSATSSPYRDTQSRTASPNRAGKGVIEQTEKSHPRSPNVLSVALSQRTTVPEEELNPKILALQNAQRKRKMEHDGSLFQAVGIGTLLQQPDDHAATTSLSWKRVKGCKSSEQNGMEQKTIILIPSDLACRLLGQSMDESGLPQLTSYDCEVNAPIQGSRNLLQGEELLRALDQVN
UniProt P37231, whole entry: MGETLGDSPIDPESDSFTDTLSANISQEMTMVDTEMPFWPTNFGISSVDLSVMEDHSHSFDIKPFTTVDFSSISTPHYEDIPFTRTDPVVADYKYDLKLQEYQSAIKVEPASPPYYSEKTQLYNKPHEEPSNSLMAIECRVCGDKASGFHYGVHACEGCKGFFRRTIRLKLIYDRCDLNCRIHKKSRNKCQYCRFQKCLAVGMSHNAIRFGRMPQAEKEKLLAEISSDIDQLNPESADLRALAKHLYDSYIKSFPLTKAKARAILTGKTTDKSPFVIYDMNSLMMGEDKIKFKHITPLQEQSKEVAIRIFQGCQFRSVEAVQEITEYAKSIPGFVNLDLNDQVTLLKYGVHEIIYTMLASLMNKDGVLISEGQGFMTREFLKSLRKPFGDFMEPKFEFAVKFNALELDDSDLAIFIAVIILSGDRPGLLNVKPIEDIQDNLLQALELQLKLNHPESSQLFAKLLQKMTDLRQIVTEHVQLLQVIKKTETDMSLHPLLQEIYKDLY

Columns and labels:
[1] = APR_HepG2_CellCycleArrest_24hr: Apredica 24-hour HepG2 Assay for Cell Cycle Arrest (AID 2282905); details: imaging, actives raise or lower the signal;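 note: cell cycle arrest scored as ratio of 2N to 4N nuclear DNA content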
In short: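 HepG2 cells were exposed to compounds at 0.39–200 uM (ten concentrations, duplicate) in 0.5% v/v DMSO for 24 hr. After formaldehyde fixation and Triton permeabilization, Hoechst 33342-stained nuclei were imaged at 20x; DNA content was quantified, with bidirectional fitting against DMSO.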

[2] = APR_HepG2_CellCycleArrest_72hr: Apredica 72-hour HepG2 Assay for Cell Cycle Arrest (AID 2282914); details: high-content imaging, actives raise or lower the signal
In short: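 HepG2, 72 hr exposure, 10-point 0.39–200 uM, duplicate, 0.5% DMSO final. Fix 3.7% formaldehyde 30 min RT, Triton X-100 0.5%, Hoechst 33342 2 ug/mL. ArrayScan 20x, six fields/well; DNA content per nucleus; bidirectional fit vs DMSO.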

[3] = target: Hypoxia-inducible factor 1-alpha (Homo sapiens) (UniProt Q16665); assay: ATG_HIF1a_CIS: Attagene CIS-FACTORIAL HepG2 Assay for human Hypoxia Inducible Factor 1 (HIF1A) (AID 2282951); details: HepG2 Attagene cis-factorial HIF1a reporter transcription; actives raise or lower the signal
In short: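 Transient MRTU transfection of human HepG2 liver cells, 24 h compound treatment, then total RNA isolation, oligo(dT) reverse transcription, PCR amplification, fluorescent labelling and capillary electrophoresis of reporter fragments. Gain or loss relative to DMSO.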

[4] = ATG_PPRE_CIS: Attagene CIS-FACTORIAL HepG2 Assay for human Peroxisome Proliferator-activated Response Element (PPRE) (AID 2282958); details: HepG2 PPRE cis-element reporter, Attagene transcription factor profiling; actives raise or lower the signal
In short: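 HepG2, transient MRTU transfection (cis promoter elements, endogenous TFs). 24 h dosing. RNA → oligo(dT) RT → PCR → 6-FAM primer extension → HpaI digest → CE. Bidirectional fit vs DMSO.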

[5] = ATG_NRF2_ARE_CIS: Attagene CIS-FACTORIAL HepG2 Assay for human Nuclear Factor Erythroid 2 Related Factor 2 (NFR2) response to Antioxidant Response Elements (ARE) (AID 2282992); details: HepG2 Attagene ARE/NRF2 reporter, transcription factor activity; actives raise or lower the signal;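 note: reporter mRNA level measured by RT-PCR and capillary electrophoresis fluorescence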
In short: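 Cis-factorial assay: transfected HepG2 reporter library, 24 h dosing, mRNA readout via RT-PCR/CE; DMSO-referenced bidirectional analysis.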

[6] = BSK_4H_Eotaxin3: BioMAP Diversity Plus: 4H Assay for Eotaxin 3 Biomarker Activity (AID 2283000); details: actives raise or lower the signal; primary human endothelial cells (HUVEC)
In short: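 Readout is Eotaxin-3 (CCL26) level by ELISA in primary human umbilical vein endothelial cells harvested 24 h after chemical exposure; activity fitted in both directions against DMSO control.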

[7] = target: Peroxisome proliferator-activated receptor gamma (Homo sapiens) (UniProt P37231); assay: ATG_PPARg_TRANS: Attagene TRANS-FACTORIAL HepG2 Assay for human Peroxisome Proliferator-activated Receptor-gamma (PPARg) (AID 2283007; active = hit-call score of the fitted dose curve at least 0.9, where 1 is the maximum)
In short: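 Transient transfection of HepG2 with GAL4-UAS-driven reporter units; chemical dosing 24 h; total RNA → oligo(dT) RT → PCR with reporter primers → 6-FAM primer extension → HpaI digest 2 h 37 C → capillary electrophoresis. Positive direction vs DMSO.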

[8] = read-out: Interferon-gamma inducible Protein 10 (IP10), CXCL10 (gene 3627); assay: BSK_BE3C_IP10: BioMAP Diversity Plus: BE3C Assay for Interferon-gamma inducible Protein 10 (IP10) Biomarker Activity (AID 2283034); details: actives raise or lower the signal; primary human bronchial epithelial cells
In short: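 Human primary bronchial epithelial cells were exposed to chemicals for 24 hours, after which IP-10 levels were measured by ELISA. Data were fitted bidirectionally against DMSO, which served as the negative control and activity baseline.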

[9] = read-out: CD38, CD38 (gene 952); assay: BSK_SAg_CD38: BioMAP Diversity Plus: SAg Assay for CD38 Biomarker Activity (AID 2283087); details: actives raise or lower the signal; primary human HUVEC with PBMC
In short: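 Fluorescence ELISA of cell-surface CD38 served as the read-out, with either increase or decrease fitted against DMSO controls. Cells were a human umbilical vein endothelium plus PBMC co-culture under SEB/TSST-1 stimulation, measured 24 h after dosing.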

[10] = BSK_SAg_Proliferation: Cell Proliferation Assessment in the BioMAP Diversity Plus: SAg Assay (AID 2283095); details: primary human HUVEC with PBMC;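 note: relative cell number as total protein by SRB absorbance in sub-confluent culture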
In short: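 Human umbilical vein endothelial cells co-cultured with peripheral blood mononuclear cells; total protein measured by sulforhodamine B staining (0.1% SRB after 10% TCA fixation), absorbance at 560 nm, at 96 h. Bidirectional fit against DMSO baseline.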

[11] = read-out: Forkhead box O1 (FOXO1), FOXO1 (gene 2308); assay: LTEA_HepaRG_FOXO1: Life Technologies and Expression Analysis (LTEA) Assay for Forkhead box O1 (FOXO1) using HepaRG (AID 2283456); details: actives raise or lower the signal; mRNA level, 48 h
In short: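 Differentiated HepaRG cells, in serum-free induction medium with 0.5% DMSO, exposed 48 h in duplicate to 8-point half-log series from 100 uM. FOXO1 mRNA measured by TaqMan qRT-PCR, normalized to ACTB, GAPDH, POLR2A; bidirectional fit versus DMSO.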

[12] = read-out: growth arrest and DNA damage 45 (GADD45B), GADD45B (gene 4616); assay: LTEA_HepaRG_GADD45B: Life Technologies and Expression Analysis (LTEA) Assay for growth arrest and DNA damage 45 (GADD45B) using HepaRG (AID 2283461); details: actives raise or lower the signal; mRNA level, 48 h
In short: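 qRT-PCR read-out (Fluidigm TaqMan, housekeeping-normalized) of mRNA change in human HepaRG cells after 48 h chemical exposure; 8-point curve, top 100 uM, half-log steps, 0.5% DMSO vehicle; gain or loss fitted relative to DMSO baseline.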

[13] = read-out: ABC Transporter (ABCB11), ABCB11 (gene 8647); assay: LTEA_HepaRG_ABCB11: Life Technologies and Expression Analysis (LTEA) Assay for ABC Transporter (ABCB11) using HepaRG (AID 2283463); details: actives raise or lower the signal; mRNA level, 48 h
In short: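 Differentiated human HepaRG cells in serum-free induction medium, dosed in duplicate for 48 h. Eight-point half-log series from 100 uM in 0.5% DMSO; ABCB11 mRNA by qRT-PCR, normalized to ACTB, GAPDH, POLR2A, fitted bidirectionally versus DMSO.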

[14] = read-out: adenosine kinase (ADK) gene, ADK (gene 132); assay: LTEA_HepaRG_ADK: Life Technologies and Expression Analysis (LTEA) Assay for adenosine kinase (ADK) gene using HepaRG (AID 2283471); details: actives raise or lower the signal; mRNA level, 48 h
In short: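 Read-out is ADK transcript level measured by qRT-PCR and normalised to three housekeeping genes. Cells are human HepaRG, dosed for 48 h at up to 100 uM in 0.5% DMSO. Gain or loss of signal is fitted against DMSO controls.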

[15] = read-out: BCL2L11 (gene 10018); assay: LTEA_HepaRG_BCL2L11: Life Technologies and Expression Analysis (LTEA) Assay for Bcl-2 (BCL2L11) gene using HepaRG (AID 2283473); details: actives raise or lower the signal; mRNA level, 48 h
In short: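 HepaRG, 48 h exposure, 8-pt half-log series from 100 uM in 0.5% DMSO, duplicates; qRT-PCR (Fluidigm TaqMan) for BCL2L11, housekeeping-normalized; bidirectional curve fit relative to DMSO baseline.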

Measured: AC50

Cc1cc([N+](=O)[O-])cc([N+](=O)[O-])c1O
active: [1] 73.7 µM | [2] 52.5 µM | [3] 26.1 µM | [4] 105 µM | [5] 62.3 µM | [6] 31.2 µM | [7] 23.7 µM | [8] 10.7 µM | [9] 14.7 µM | [10] 29.5 µM | [11] 32.2 µM | [12] 12.2 µM | [13] 4.43 µM | [14] 12.4 µM | [15] 12.2 µM
